Assay results taken from US8877732B2, “Combination, kit and method of reducing intraocular pressure” (Inotek Pharmaceuticals Corporation, priority 2010, dated 2014).

Tested on: intraocular pressure (IOP) in normotensive monkeys
Experiment: IOP after single topical ocular dosing of Compound A with or after latanoprost in conscious normotensive monkeys (Treatments 1-5)
Assay type: in vivo, cynomolgus monkeys (Macaca fascicularis)
Details: Compound A 100 mcg (aqueous suspension, 4 or 5 h after) or 500 mcg (HPβCD, immediately after) latanoprost 1.5 mcg, 1 hour after Compound A, each arm, n=10
Method: Compound A was administered in two different formulations: […]
In one formulation, lyophilized Compound A to HPβCD in 1:20 (wt/wt) was reconstituted with 0.9% Saline for Injection, USP.
The aqueous formulation comprised of the following: […]
The control in the first treatment was a 40 mcL composition of 0.8% sodium chloride (NaCl), 0.15% citrate, 0.01% benzalkonium chloride, 0.3% polysorbate 80, and 0.7% sodium (Na) carboxymethylcellulose.
In the third treatment, 10 monkeys received latanoprost (Xalatan™) dosed via 2 drops at 15 mcL apart (at a concentration of 50 mcg/mL) for a total dose of 1.5 mcg in one study eye and 2 drops of saline vehicle in the contralateral eye. This treatment was performed at two separate times with a sufficient washout between treatments. The IOPs of both the study eye and contralateral eye were measured repeatedly using a calibrated pneumotonometer following an application of a topical anesthetic (proparacaine).
In the fourth treatment, 10 monkeys received latanoprost (Xalatan™) topically dosed via 2 drops at 15 mcL apart (at a concentration of 50 mcg/mL) for a total dose of 1.5 mcg in one study eye and saline in the contralateral eye. […] The intraocular pressures (IOP) of both the study eye and contralateral eye were measured repeatedly using a calibrated pneumotonometer following an application of a topical anesthetic (proparacaine). […]

O=[N+]([O-])OC[C@H]1O[C@@H](n2cnc3c(NC4CCCC4)ncnc32)[C@H](O)[C@@H]1O [Compound A, ((2R,3S,4R,5R)-5-(6-(cyclopentylamino)-9H-purin-9-yl)-3,4-dihydroxytetrahydrofuran-2-yl)methyl nitrate]
reduction in IOP relative to latanoprost alone: further significant reduction in IOP
